Consider one compound from ChEMBL document CHEMBL6114970, “Development of carbazole-based molecules for inhibition of mutant hSOD1 protein aggregation in Amyotrophic Lateral Sclerosis” (Bioorg Med Chem, 2025).

The structures appear in SMILES notation.

Usually inhibition stands for the percentage by which the read-out fell short of the control.

For this test, the species on record is Homo sapiens. In words: Inhibition of TCEP-treated human SOD1 G93A mutant aggregation at 50 uM measured after 24 hrs by thioflavin-T fluorescence assay relative to control.

In turn, `COc1cc(/C=C/C(=O)CC(=O)/C=C/c2ccc(O)c(OC)c2)ccc1O` [CURCUMIN] registered an inhibition of 73.5%.
